Earlier results, collected in US7074935B2.
Some compounds may have been tested in ways that are not shown here.

System: Plasma protein
Details: compared with fentanyl; cited from earlier work

Structure (SMILES): CCC(=O)N(c1ccccc1)C1(COC)CCN(CCn2nnn(CC)c2=O)CC1
- plasma protein binding: significantly greater than that for fentanyl
